Paper PMC6925601 (European journal of medicinal chemistry, 2019)

Target: T1, Cdc25A (Homo sapiens, UniProt P30304)
T1 sequence (P30304 1-524): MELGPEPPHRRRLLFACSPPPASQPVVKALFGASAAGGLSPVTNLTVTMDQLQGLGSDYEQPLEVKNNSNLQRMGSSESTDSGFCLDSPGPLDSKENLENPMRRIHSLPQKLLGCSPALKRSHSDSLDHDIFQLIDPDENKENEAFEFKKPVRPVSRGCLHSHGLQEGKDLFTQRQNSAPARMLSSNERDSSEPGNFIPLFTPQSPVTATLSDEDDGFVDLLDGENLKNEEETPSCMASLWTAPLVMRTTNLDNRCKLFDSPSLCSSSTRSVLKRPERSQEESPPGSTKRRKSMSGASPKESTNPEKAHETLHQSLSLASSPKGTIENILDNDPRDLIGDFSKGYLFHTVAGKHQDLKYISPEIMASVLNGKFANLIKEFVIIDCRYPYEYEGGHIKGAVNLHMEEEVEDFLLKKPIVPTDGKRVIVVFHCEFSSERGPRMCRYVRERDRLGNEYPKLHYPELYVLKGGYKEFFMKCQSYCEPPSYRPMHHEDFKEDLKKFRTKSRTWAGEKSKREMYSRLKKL
Assay: CycLex Cdc25A fluorometric phosphatase inhibition assay
Type: biochemical

**Q.** `CSC1=C(SC)C(=O)c2ccccc2C1=O` [Compound 13] was tested. Which IC50 did it give?
**A.** The IC50 was under 5 µM.
